# Reference: US20230263907A1, “PREPARATION OF SOLID CYCLODEXTRIN COMPLEXES FOR OPHTHALMIC ACTIVE PHARMACEUTICAL INGREDIENT DELIVERY” (OCULIS SA, priority 2020, published 2023)
# The chains behind the UniProt entries cited, without tags or fusion partners. Residues count along the entry.
# UniProt P35968, 20-1356, species assumed: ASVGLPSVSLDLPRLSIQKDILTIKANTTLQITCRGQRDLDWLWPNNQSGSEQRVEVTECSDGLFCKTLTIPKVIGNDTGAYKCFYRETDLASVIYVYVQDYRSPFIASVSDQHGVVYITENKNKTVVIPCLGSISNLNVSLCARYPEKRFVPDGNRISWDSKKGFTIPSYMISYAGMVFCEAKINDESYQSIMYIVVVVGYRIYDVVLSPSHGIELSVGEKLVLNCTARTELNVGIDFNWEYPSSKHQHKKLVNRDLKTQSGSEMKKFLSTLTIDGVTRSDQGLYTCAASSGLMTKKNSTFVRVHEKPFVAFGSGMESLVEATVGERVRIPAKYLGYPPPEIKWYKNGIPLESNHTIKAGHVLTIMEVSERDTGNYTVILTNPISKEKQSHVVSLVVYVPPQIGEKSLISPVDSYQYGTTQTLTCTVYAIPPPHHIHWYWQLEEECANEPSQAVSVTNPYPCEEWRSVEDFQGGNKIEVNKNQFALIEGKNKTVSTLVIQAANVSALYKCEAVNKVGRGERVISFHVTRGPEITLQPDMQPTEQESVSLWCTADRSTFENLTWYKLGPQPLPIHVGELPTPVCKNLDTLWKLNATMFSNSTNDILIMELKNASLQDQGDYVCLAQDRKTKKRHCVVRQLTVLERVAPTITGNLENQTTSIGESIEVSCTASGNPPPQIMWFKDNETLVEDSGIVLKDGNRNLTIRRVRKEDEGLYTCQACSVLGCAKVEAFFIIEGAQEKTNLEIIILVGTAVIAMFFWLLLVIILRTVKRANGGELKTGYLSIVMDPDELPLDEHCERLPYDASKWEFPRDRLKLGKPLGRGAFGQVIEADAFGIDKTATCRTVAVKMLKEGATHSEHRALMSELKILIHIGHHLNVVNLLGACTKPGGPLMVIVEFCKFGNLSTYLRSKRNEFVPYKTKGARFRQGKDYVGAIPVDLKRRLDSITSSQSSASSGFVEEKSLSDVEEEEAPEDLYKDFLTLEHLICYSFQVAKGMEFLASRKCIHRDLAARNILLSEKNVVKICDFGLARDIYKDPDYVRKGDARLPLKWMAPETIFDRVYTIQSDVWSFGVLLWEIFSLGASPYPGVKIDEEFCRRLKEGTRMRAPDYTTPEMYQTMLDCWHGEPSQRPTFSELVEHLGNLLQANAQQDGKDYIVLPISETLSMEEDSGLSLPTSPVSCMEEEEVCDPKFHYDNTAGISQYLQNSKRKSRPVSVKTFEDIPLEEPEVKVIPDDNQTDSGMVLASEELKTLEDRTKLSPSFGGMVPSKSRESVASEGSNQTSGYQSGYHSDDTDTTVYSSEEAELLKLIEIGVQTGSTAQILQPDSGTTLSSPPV
# Biological target: VEGFR2 (Homo sapiens, UniProt P35968)
# Experiment: VEGFR2 IC50 values obtained from Selleckchem, Tocris Bioscience and TargetMol
row,SMILES,EGFR/VEGFR2 ratio
1,O=C(Nc1cc(Oc2cc(F)c(NC(=O)C3(C(=O)Nc4ccc(F)cc4)CC3)cc2F)ccn1)C1CC1 [Altiratinib],360
2,COCCNCc1ccc(-c2cc3nccc(Oc4ccc(NC(=O)C5(C(=O)Nc6ccc(F)cc6)CC5)cc4F)c3s2)nc1 [Sitravatinib],1000
